This is an account of results in patent publication US11179663B1, “Polyurethane-based materials” (Aviro LLC, priority 2021, dated 2021).

The assay relates to COVID-19. As to the kind of experiment: coronavirus deactivation test after attachment to the surfaces, qPCR for genes indicative of COVID-19 activity. To be noted: Example 3, foam coated with a single antiviral compound.

Regarding `CCCCCCCCCCCCCCCCCC[N+](C)(C)CCC[Si](OC)(OC)OC.[Cl-]` [DMS, Dimethyloctadecyl[3-(trimethoxysilyl)propyl]ammonium chloride], the “% Deactivated of that captured” value is listed as 42.8%.
